Measurements published in PubChem BioAssay AID504734 (The Scripps Research Institute Molecular Screening Center, 2011).
Only a part is listed here, and it is no random draw. Activity calls are given as the source filed them.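 Rule for the calls: active = inhibition above the mean over all tested compounds plus 3 SD (cut at about 21% in these data); inactive = the rest.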

Amino acid sequences for entries named in this document (tags omitted).
UniProt Q9NR96, whole entry: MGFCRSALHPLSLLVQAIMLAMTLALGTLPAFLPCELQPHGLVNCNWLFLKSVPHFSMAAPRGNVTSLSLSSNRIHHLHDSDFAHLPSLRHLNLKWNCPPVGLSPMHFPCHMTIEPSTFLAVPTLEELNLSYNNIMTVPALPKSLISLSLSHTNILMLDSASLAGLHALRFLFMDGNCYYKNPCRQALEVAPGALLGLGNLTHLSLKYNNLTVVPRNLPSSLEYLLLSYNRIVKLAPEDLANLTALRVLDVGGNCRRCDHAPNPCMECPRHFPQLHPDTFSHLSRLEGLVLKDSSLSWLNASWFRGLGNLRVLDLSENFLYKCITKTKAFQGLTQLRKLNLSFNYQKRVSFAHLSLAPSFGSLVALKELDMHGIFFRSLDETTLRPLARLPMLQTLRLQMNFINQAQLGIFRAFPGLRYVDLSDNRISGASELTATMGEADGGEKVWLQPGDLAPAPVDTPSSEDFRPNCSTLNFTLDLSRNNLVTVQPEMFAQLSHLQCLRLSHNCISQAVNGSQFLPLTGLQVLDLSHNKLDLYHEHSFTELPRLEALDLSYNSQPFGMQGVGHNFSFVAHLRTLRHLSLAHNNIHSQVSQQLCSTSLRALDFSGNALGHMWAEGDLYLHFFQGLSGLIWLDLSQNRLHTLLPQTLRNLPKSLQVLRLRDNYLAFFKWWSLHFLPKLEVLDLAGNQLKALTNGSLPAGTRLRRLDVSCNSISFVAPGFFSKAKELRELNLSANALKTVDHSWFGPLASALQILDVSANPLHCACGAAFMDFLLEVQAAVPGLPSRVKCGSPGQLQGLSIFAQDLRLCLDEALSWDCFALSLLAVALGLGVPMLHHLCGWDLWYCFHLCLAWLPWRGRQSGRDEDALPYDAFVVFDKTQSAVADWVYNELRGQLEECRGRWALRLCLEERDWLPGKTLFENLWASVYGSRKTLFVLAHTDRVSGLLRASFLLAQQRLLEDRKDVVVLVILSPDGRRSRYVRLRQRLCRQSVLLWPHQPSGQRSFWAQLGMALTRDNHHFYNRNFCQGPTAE

Molecular target: Toll-like receptor 9 (Homo sapiens) + Myeloid differentiation primary response protein MyD88 (Homo sapiens) (UniProt Q9NR96+Q99836)
Test: disruptors of TLR9 binding to MyD88 – cell-based, CHO, BLA complementation, fluorescence, primary screen (AID 504734);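 note: 0% = DMSO only wells and 100% = clavulanate BLA inhibitor control wells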
Conditions: CHO BLA complementation TLR9-MyD88, CCF4 FRET ratio; at 4.98 µM; stronger effect = higher value

**Q.** For `CCN(CC)CC(O)COC(=O)C(O)(c1ccccc1)C1CCCCC1` (stereo not drawn), which inhibition is on record?
**A.** inactive: -1.13%

**Q.** `COc1ccc(OP(C)(=O)Nc2ccc(Br)cc2)cc1` (stereo not drawn) was tested. Which inhibition did it give?
**A.** inactive: -0.22%

**Q.** Which inhibition does the source give for `CP(=O)(Oc1ccccc1)N1CCOC1=O` (stereo not drawn) here?
**A.** inactive: 1.87%

**Q.** Which inhibition does the source give for `CCc1ccc(OP(C)(=O)Nc2cccnc2)cc1` (stereo not drawn) here?
**A.** inactive: 2.41%

**Q.** Which inhibition does the source give for `COc1ccccc1OP(C)(=O)Nc1c(C)n(C)n(-c2ccccc2)c1=O` (stereo not drawn) here?
**A.** inactive: -1.4%

**Q.** Which inhibition does the source give for `O=C(OCCCN1CCCC1)C(O)(c1ccccc1)C1CCCCC1` (stereo not drawn) here?
**A.** inactive: 13.8%

**Q.** With `CP(=O)(Nc1ccc(Cl)cc1)Oc1ccc(F)cc1` (stereo not drawn) as the compound, how does the inhibition read?
**A.** inactive: -2.09%

**Q.** For `CC(C)(C)c1ccc(OP(C)(=O)O)cc1`, which inhibition is on record?
**A.** inactive: -0.44%

**Q.** Which inhibition does the source give for `COc1ccccc1OP(C)(=O)Nc1ccccc1Br` (stereo not drawn) here?
**A.** inactive: 4.3%

**Q.** For `CN(C)C(=O)c1c([N+](=O)[O-])cc([N+](=O)[O-])cc1[N+](=O)[O-]`, which inhibition is on record?
**A.** inactive: 1.85%

**Q.** How did the inhibition turn out when `CP(=O)(OC12CC3CC(CC(C3)C1)C2)OC12CC3CC(CC(C3)C1)C2` was run?
**A.** inactive: -6.93%

**Q.** With `CCOC(=O)c1ccc(NP(C)(=O)Oc2ccc(Cl)cc2)cc1` (stereo not drawn) as the compound, how does the inhibition read?
**A.** inactive: 7.47%

**Q.** Which inhibition does the source give for `O=C1C(O)=C([N+](=O)[O-])C(=O)C(O)=C1[N+](=O)[O-]` here?
**A.** inactive: 6.26%

**Q.** For `Cc1cc(C)cc(OP(C)(=O)Nc2cccc(C(F)(F)F)c2)c1` (stereo not drawn), which inhibition is on record?
**A.** inactive: -3.79%

**Q.** Which inhibition does the source give for `COc1ccc(OP(C)(=O)Nc2ccccc2Br)cc1` (stereo not drawn) here?
**A.** inactive: 4.16%

**Q.** `COc1ccccc1OP(C)(=O)Nc1ccc(C)c(C)c1` (stereo not drawn) was tested. Which inhibition did it give?
**A.** inactive: 2.86%

**Q.** With `CP(=O)(OCCOc1ccccc1)OCCOc1ccccc1` as the compound, how does the inhibition read?
**A.** inactive: -14.7%

**Q.** For `CP(=O)(Nc1ccc(Cl)cc1Cl)Oc1ccccc1` (stereo not drawn), which inhibition is on record?
**A.** inactive: 4.22%

**Q.** `CCCCCCCCCCCCCCCC1C[N+](C)(C)CCOP(C)(=O)O1` (stereo not drawn) was tested. Which inhibition did it give?
**A.** inactive: -3.42%

**Q.** With `COc1ccccc1OP(C)(=O)Nc1ccc(Br)cc1` (stereo not drawn) as the compound, how does the inhibition read?
**A.** inactive: -4.93%

**Q.** With `CN(C)CCOC(=O)C(O)(c1ccccc1)C1CCCC1` (stereo not drawn) as the compound, how does the inhibition read?
**A.** inactive: 7.4%

**Q.** For `COc1ccc(OP(C)(=O)Nc2ccccn2)cc1` (stereo not drawn), which inhibition is on record?
**A.** inactive: -5.66%

**Q.** For `O=[N+]([O-])c1cc([N+](=O)[O-])c(Nc2ccccn2)c([N+](=O)[O-])c1`, which inhibition is on record?
**A.** inactive: 4.48%

**Q.** For `Cc1c(NP(C)(=O)Oc2ccc(C(C)C)cc2)c(=O)n(-c2ccccc2)n1C` (stereo not drawn), which inhibition is on record?
**A.** inactive: 0.88%

**Q.** With `CCc1ccc(OP(C)(=O)O)cc1` as the compound, how does the inhibition read?
**A.** inactive: -2.07%

**Q.** For `CP(=O)(Nc1ccccn1)Oc1ccccc1` (stereo not drawn), which inhibition is on record?
**A.** inactive: 4.86%

**Q.** For `COc1ccccc1OP(C)(=O)Nc1ccc(C)cc1C` (stereo not drawn), which inhibition is on record?
**A.** inactive: 2.91%

**Q.** With `O=[N+]([O-])c1cc([N+](=O)[O-])c(Nc2ccc(Cl)cc2)c([N+](=O)[O-])c1` as the compound, how does the inhibition read?
**A.** inactive: -10.7%
